## AlphaSeq binding of Ab-14 heavy chain variants to a spike HR2 peptide

Reference: Li et al. 2023, doi:10.1038/s41467-023-39022-2. File: FLAb, binding data.

The target is the same throughout: PDVDLGDISGINAS, from the HR2 region of SARS-CoV-2 spike.

Parent: Ab-14, a human scFv built as VH, the linker GGGGSGGGGSGGGGS, VL. Only the CDRs of the heavy chain vary.
VH: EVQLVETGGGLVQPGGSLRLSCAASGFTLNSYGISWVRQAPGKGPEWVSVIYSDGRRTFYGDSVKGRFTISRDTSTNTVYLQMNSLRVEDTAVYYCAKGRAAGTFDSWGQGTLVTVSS
VL: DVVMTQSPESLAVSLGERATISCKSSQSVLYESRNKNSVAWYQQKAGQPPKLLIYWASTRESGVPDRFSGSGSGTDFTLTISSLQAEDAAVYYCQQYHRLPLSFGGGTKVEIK

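These sequences belong to a second round, designed from the earlier measurements on random variants of the parent. Group labels follow the data file (Ctrl: baseline library sampled from a position-specific scoring matrix, with some repeated check sequences; En: ensemble of fine-tuned language models; GP: Gaussian process model; GPLM: also part of the Gaussian process libraries; HC: hill climbing; Gen: genetic algorithm; Gibbs: Gibbs sampling; a sequence that several methods proposed may carry one label only). In AlphaSeq, yeast of one mating type display the scFv and yeast of the other type display the target. Binding brings cells together so that they mate, and sequencing counts the barcode pairs among the diploids. Scores were corrected for input abundance and mapped to Kd with protein pairs of known affinity run in the same pool. Each pool was mated in six replicate cultures.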

The whole VH of each variant is written out.
This list holds designs with at most six substitutions.
Values are log10 of the apparent Kd in nM; lower means stronger binding.
A mean of the replicates is given; it leaves out those without a signal.
"no signal" means that the variant was in the library but no mating with the target was seen in any replicate; the authors take this as a sign of poor binding, and no number exists.
Of ten entries with the parent sequence, four were seen in most replicates (averages 0.34 to 2.37), three in one and three in none, so single entries are noisy.

For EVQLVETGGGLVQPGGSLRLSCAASGFDLNTYGISWVRQAPGKGPEWVSVIYSDGRRTFYADSVKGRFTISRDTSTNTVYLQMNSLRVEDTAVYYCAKGRAAGTFDSWGQGTLVTVSS [GPLM_Gen], the assay gave -0.09 (6 of 6 replicates). Variant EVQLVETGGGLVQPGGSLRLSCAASGFTLESYGISWVRQAPGKGPEWVSVIYSDGRRTFYGDSVKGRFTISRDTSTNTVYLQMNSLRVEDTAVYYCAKGKVAGTFDSWGQGTLVTVSS [GP_Gen] showed 1.22 (6 of 6 replicates). With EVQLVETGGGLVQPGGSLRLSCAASGFSLNNYGISWVRQAPGKGPEWVSVIYSDGRRTFYSDSVKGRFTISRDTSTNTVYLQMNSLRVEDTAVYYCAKGRAAGTFDSWGQGTLVTVSS [GPLM_Gen] the result was 0.73 (6 of 6 replicates). With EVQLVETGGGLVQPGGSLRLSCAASGFDLNEYGISWVRQAPGKGPEWVSVIYADGRRTFYQDSVKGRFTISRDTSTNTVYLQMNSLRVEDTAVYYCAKGTAAGTFDQWGQGTLVTVSS [En_HC] the result was no signal (0 of 6 replicates). Variant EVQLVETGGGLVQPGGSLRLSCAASGFSLNEYGISWVRQAPGKGPEWVSVIYSDGIRTFYGDSVKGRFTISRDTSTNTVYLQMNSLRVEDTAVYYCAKGRTAGTFDTWGQGTLVTVSS [GP_Gibbs] showed -0.17 (6 of 6 replicates). With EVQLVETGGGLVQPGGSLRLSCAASGFTLNEYGISWVRQAPGKGPEWVSVIYSDGRRTFYGDSVKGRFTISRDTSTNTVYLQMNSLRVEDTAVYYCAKGRNAITFDLWGQGTLVTVSS [Ctrl] the result was no signal (0 of 6 replicates). Variant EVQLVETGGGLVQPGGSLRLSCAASGFTLNSYGISWVRQAPGKGPEWVSVIYSDGRRTFYGDSVRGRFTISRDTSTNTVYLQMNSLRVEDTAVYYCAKGSAAITFDAWGQGTLVTVSS [Ctrl] gave no signal (0 of 6 replicates). With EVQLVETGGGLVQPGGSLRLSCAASGFTLNEYGISWVRQAPGKGPEWVSVIYSDGIRTFYGDSVKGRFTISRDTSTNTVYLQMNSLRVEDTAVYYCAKGRAAGTFTSWGQGTLVTVSS [GPLM_HC] the result was no signal (0 of 6 replicates). Variant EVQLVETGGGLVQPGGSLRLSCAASGFTINSYGISWVRQAPGKGPEWVSVIYSDGRRTFYKDSVKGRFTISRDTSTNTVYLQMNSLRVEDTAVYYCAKGRAAGTYPSWGQGTLVTVSS [Ctrl] showed no signal (0 of 6 replicates).

For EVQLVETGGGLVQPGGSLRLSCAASGFTLNSYGISWVRQAPGKGPEWVSVIYSDGMRTQYGDSVKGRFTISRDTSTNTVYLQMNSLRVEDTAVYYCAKGRAAGAFDSWGQGTLVTVSS [Ctrl], the assay gave 2.30 (1 of 6 replicates). For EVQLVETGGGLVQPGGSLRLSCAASGFTLNSYGISWVRQAPGKGPEWVSVIYSDGWRTQYGDSVKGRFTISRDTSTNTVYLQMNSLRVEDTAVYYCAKGRNAGTPDSWGQGTLVTVSS [Ctrl], the assay gave no signal (0 of 6 replicates). Variant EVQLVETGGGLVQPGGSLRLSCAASGFTLNSYGISWVRQAPGKGPEWVSVIYSDGVRTFYIDSVKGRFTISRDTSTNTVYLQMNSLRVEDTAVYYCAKGNAAGTFDSWGQGTLVTVSS [GPLM_Gen] showed 0.16 (6 of 6 replicates). With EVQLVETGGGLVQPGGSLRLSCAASGFTLNSYGCSWVRQAPGKGPEWVSVIYSDGLRTSYGDSVKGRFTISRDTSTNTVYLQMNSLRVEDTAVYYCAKGRAAGTFDSWGQGTLVTVSS [Ctrl] the result was 0.04 (3 of 6 replicates). With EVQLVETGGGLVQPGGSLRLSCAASGFDLNSYGISWVRQAPGKGPEWVSVIYSDGRRTFYADKVKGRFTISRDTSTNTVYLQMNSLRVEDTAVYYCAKGREAGTFDSWGQGTLVTVSS [GP_Gibbs] the result was -0.04 (6 of 6 replicates). With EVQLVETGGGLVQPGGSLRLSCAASGFTLNSYGISWVRQAPGKGPEWVSVIYADGRRCFYGDSVKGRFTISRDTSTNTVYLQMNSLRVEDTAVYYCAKGKAAGTSDSWGQGTLVTVSS [Ctrl] the result was 1.48 (4 of 6 replicates).

Picked from the list: the 2 lowest averages where every replicate gave a value.

{"VH": "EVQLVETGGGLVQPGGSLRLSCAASGFSLNEYGISWVRQAPGKGPEWVSVIYSDGIRTFYGDSVKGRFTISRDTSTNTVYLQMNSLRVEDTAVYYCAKGRTAGTFDTWGQGTLVTVSS", "group": "GP_Gibbs", "log10 Kd (nM), mean": "-0.17", "seen in": "6 of 6"}
{"VH": "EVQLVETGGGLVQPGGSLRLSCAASGFDLNTYGISWVRQAPGKGPEWVSVIYSDGRRTFYADSVKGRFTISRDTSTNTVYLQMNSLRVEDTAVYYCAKGRAAGTFDSWGQGTLVTVSS", "group": "GPLM_Gen", "log10 Kd (nM), mean": "-0.09", "seen in": "6 of 6"}

Values of this round are not directly comparable with the first-round values of the same sequences.
Three control strains display no target. For all heavy chain designs, 1% of the pairings with them gave a signal, with a median of 2.08 and one signal in twenty below 0.84, so weak values seen in few replicates may be background.
The authors averaged sequences with at least three values out of six and counted those with two or fewer as poor binders.